# Bioassay records deposited in PubChem BioAssay by ICCB-Longwood Screening Facility, Harvard Medical School.
# GIV-Gai inh: GIV-Galpha-i interaction inhibition. P08753. Galpha-i3/FITC-GIV peptide fluorescence polarization, 90 min; active compounds read low; scaled: aluminum fluoride 0%, vehicle 100%. percent of control (FP), % (test concentration not listed). 210,000 compounds, 0.42% hits. AID 1224905;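 active = replicate mean at 85% of control or lower, very high polarization wells dropped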;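 also: lower values mean more displacement of the GIV peptide from Galpha-i3; wells of about 15 µL received 100 nL stock; the first replicate is given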
# HCMV UL50-53 inh: inhibitors of HCMV UL50-UL53 nuclear egress complex interaction. HTRF UL50-UL53 interaction, normalized percent inhibition. inhibition, % (no concentration beside the values). actives 0.15% (n = 190,000); in the data active = inhibition above about 27%, passing the limit was not always enough
# Numbers without * were called inactive; . = not tested or not shown. The list is not random: actives were taken first. Their share in the collection is about 0.43%.
SMILES: COC(=O)CC1SC(=O)NC1=S (stereo unspecified)
- GIV-Gai inh: -68.4*
- HCMV UL50-53 inh: -72.5

SMILES: Cc1ccc2c(c1)C(=Nc1ccccc1)c1cc3ccccc3nc1-2
- GIV-Gai inh: 108.8
- HCMV UL50-53 inh: .

SMILES: COc1ccc(S(=O)(=O)N2CCC3(CC2)Nc2ccccc2-n2cccc23)cc1OC
- GIV-Gai inh: 103.4
- HCMV UL50-53 inh: 5.7

SMILES: COc1cc(CN2CCC3(CC2)Nc2ccccc2-n2cccc23)cc(OC)c1OC
- GIV-Gai inh: 97.1
- HCMV UL50-53 inh: 60.2*

SMILES: CCN(CC)c1ccc2cc(C(=O)Nc3ccc(NC(C)=O)cc3)c(=O)oc2c1
- GIV-Gai inh: 82.6*
- HCMV UL50-53 inh: -16.0

SMILES: CCN(CC)c1ccc2cc(C(=O)NC3CCCCC3)c(=O)oc2c1
- GIV-Gai inh: .
- HCMV UL50-53 inh: -24.3

SMILES: CCN(CC)c1ccc2cc(NC(=O)CCC(=O)O)c(=O)oc2c1
- GIV-Gai inh: 83.7*
- HCMV UL50-53 inh: -38.2

SMILES: CCN(CC)c1ccc2cc(C(=O)Nc3cccc(C(F)(F)F)c3)c(=O)oc2c1
- GIV-Gai inh: 101.7
- HCMV UL50-53 inh: -4.8

SMILES: CC(C)NC(=O)c1ccc(-c2nc3cc(NS(=O)(=O)c4ccc(F)c(F)c4)ccc3n2C)cc1
- GIV-Gai inh: 102.5
- HCMV UL50-53 inh: .

SMILES: N#CC(C#N)=C1CCCN1C(=O)c1ccccc1
- GIV-Gai inh: .
- HCMV UL50-53 inh: -45.0

SMILES: O=C(COc1ncnc2ccccc12)NC1CCCCCC1
- GIV-Gai inh: .
- HCMV UL50-53 inh: -30.5

SMILES: CCOC(=O)c1[nH]c(CSc2nnc3ccccn23)c(C(=O)OCC)c1C
- GIV-Gai inh: .
- HCMV UL50-53 inh: -21.8

SMILES: CCOC(=O)c1[nH]c(CSc2cccc[n+]2[O-])c(C(=O)OCC)c1C
- GIV-Gai inh: .
- HCMV UL50-53 inh: 61.6*

SMILES: CCOc1cc(C(=O)OCC(=O)Nc2ccccc2Cl)ccc1OCC(=O)N1CCOCC1
- GIV-Gai inh: .
- HCMV UL50-53 inh: -7.8

SMILES: C=CCN1C(=O)/C(=C/c2c(N3CCCCC3)nc3ccccn3c2=O)SC1=S
- GIV-Gai inh: -36.2*
- HCMV UL50-53 inh: .

SMILES: CCCCN1C(=O)/C(=C/c2c(N3CCN(CCO)CC3)nc3ccccn3c2=O)SC1=S
- GIV-Gai inh: 248.8
- HCMV UL50-53 inh: .

SMILES: C=CCN1C(=O)/C(=C/c2c(Sc3ccccc3)nc3ccccn3c2=O)SC1=S
- GIV-Gai inh: -36.2*
- HCMV UL50-53 inh: .

SMILES: C=CCN1C(=O)/C(=C\c2cccs2)SC1=S
- GIV-Gai inh: .
- HCMV UL50-53 inh: -15.5

SMILES: Cc1cccn2c(=O)c(/C=C3\SC(=S)N(CCc4ccccc4)C3=O)c(N3CCCC3)nc12
- GIV-Gai inh: 104.4
- HCMV UL50-53 inh: -8.6

SMILES: CCCN1C(=O)/C(=C/c2c(N3CCCC3)nc3ccccn3c2=O)SC1=S
- GIV-Gai inh: -60.5*
- HCMV UL50-53 inh: -36.1

SMILES: COCCCN1C(=O)/C(=C/c2c(N3CCN(C)CC3)nc3c(C)cccn3c2=O)SC1=S
- GIV-Gai inh: 61.7*
- HCMV UL50-53 inh: -44.6

SMILES: CC1CCN(c2nc3ccccn3c(=O)c2/C=C2/SC(=S)N(C3CCCCC3)C2=O)CC1
- GIV-Gai inh: 183.3
- HCMV UL50-53 inh: .

SMILES: CC(CC(=O)O)CC(=O)Nc1cc(Cl)cc(Cl)c1 (stereo unspecified)
- GIV-Gai inh: 100.3
- HCMV UL50-53 inh: 3.7

SMILES: O=C(COc1cccc2ccc(N3CCCC3)nc12)Nc1ccc(Cl)cc1
- GIV-Gai inh: 99.9
- HCMV UL50-53 inh: -26.3

SMILES: O=C1c2ccccc2C(=O)N1Cc1ncc(-c2ccccc2)o1
- GIV-Gai inh: .
- HCMV UL50-53 inh: -52.6

SMILES: Cc1nc(-c2ccc(Cl)c(S(=O)(=O)N3CCCC(C(=O)N4CCN(C5CCCCC5)CC4)C3)c2)no1 (stereo unspecified)
- GIV-Gai inh: 97.6
- HCMV UL50-53 inh: -19.0

SMILES: Cn1c(=O)c2c(-c3ccc(Cl)cc3)n(-c3ccc(Br)cc3)cc2n(C)c1=O
- GIV-Gai inh: 102.0
- HCMV UL50-53 inh: -4.3

SMILES: CCCOc1ccc(NC(=O)CCCN2C(=O)c3ccccc3C2=O)cc1
- GIV-Gai inh: 102.0
- HCMV UL50-53 inh: -7.3

SMILES: CCOC(=O)C1CCN(CN2C(=O)C3(SCC(=O)N3c3ccc(C)c(C)c3)c3ccccc32)CC1 (stereo unspecified)
- GIV-Gai inh: 122.5
- HCMV UL50-53 inh: .

SMILES: CC1CCC(C(C)C)C(OC(=O)CSc2nnc(-c3cccnc3)n2N)C1 (stereo unspecified)
- GIV-Gai inh: .
- HCMV UL50-53 inh: -1.2

SMILES: CN(CCC#N)C(=O)C1CC(=O)N(Cc2ccco2)C1 (stereo unspecified)
- GIV-Gai inh: .
- HCMV UL50-53 inh: -11.7

SMILES: CN1CCN(c2nc3ccccn3c(=O)c2/C=C2\SC(=S)N(Cc3ccco3)C2=O)CC1
- GIV-Gai inh: 161.9
- HCMV UL50-53 inh: -10.6

SMILES: CCN1C(=O)/C(=C/c2c(N3CCCCC3)nc3ccccn3c2=O)SC1=S
- GIV-Gai inh: -75.4*
- HCMV UL50-53 inh: 2.3

SMILES: CC1=C(C(=O)OC(C)C)C2(O)C(=O)c3ccccc3C2(O)N1 (stereo unspecified)
- GIV-Gai inh: 99.1
- HCMV UL50-53 inh: 60.8*

SMILES: CCC(C)OC(=O)C1=C(C)NC2(O)c3ccccc3C(=O)C12O (stereo unspecified)
- GIV-Gai inh: 106.7
- HCMV UL50-53 inh: .

SMILES: N#Cc1ccsc1NC(=O)CC1(CC(=O)O)CCCC1
- GIV-Gai inh: .
- HCMV UL50-53 inh: -2.5

SMILES: CCN1/C(=C\C=C2/C(=O)NC(=O)N(C)C2=O)Sc2ccccc21
- GIV-Gai inh: -61.2*
- HCMV UL50-53 inh: -43.9

SMILES: CCN1/C(=C\C=C2\C(=O)N(C)C(=S)N2C)Sc2ccccc21
- GIV-Gai inh: 270.0
- HCMV UL50-53 inh: .

SMILES: O=C(CCc1nc(N2CCCCC2)c2c(-c3ccc(F)cc3)noc2n1)NCc1ccccc1Cl
- GIV-Gai inh: 98.6
- HCMV UL50-53 inh: .

SMILES: O=C1COc2ccc(S(=O)(=O)NCC3CCCO3)cc2N1Cc1noc(C2CCC2)n1 (stereo unspecified)
- GIV-Gai inh: 104.9
- HCMV UL50-53 inh: .

# Next section, starting with the last 3 of the part before.
SMILES: CCN1/C(=C\C=C2\C(=O)N(C)C(=S)N2C)Sc2ccccc21
- GIV-Gai inh: 270.0
- HCMV UL50-53 inh: .

SMILES: O=C(CCc1nc(N2CCCCC2)c2c(-c3ccc(F)cc3)noc2n1)NCc1ccccc1Cl
- GIV-Gai inh: 98.6
- HCMV UL50-53 inh: .

SMILES: O=C1COc2ccc(S(=O)(=O)NCC3CCCO3)cc2N1Cc1noc(C2CCC2)n1 (stereo unspecified)
- GIV-Gai inh: 104.9
- HCMV UL50-53 inh: .

SMILES: O=C(O)COc1ccc2c(c1)C(=NO)c1cc(OCC(=O)O)ccc1-2
- GIV-Gai inh: 106.0
- HCMV UL50-53 inh: .

SMILES: O=C(O)COc1ccc2c(c1)C(=O)c1cc(OCC(=O)O)ccc1-2
- GIV-Gai inh: 84.0*
- HCMV UL50-53 inh: -57.3

SMILES: C=Cc1c(C)/c2[n-]/c1=C\c1[n-]c(c(CC)c1C)/C=c1\[n-]c3c(c1C)C(=O)C(C(=O)[O-])C=3c1[n-]c(c(C)c1CCC(=O)[O-])\C=2.[Cu].[Na+].[Na+] (stereo unspecified)
- GIV-Gai inh: .
- HCMV UL50-53 inh: 52.5*

SMILES: CCOC(=O)c1c(-c2ccccc2)oc2c1cc(OC(=O)c1ccc(OC)cc1)c1ccccc12
- GIV-Gai inh: 100.8
- HCMV UL50-53 inh: 20.2
